Patent US11066414B2, “Cot modulators and methods of use thereof” (Gilead Sciences, Inc., priority 2015, dated 2021)

Amino acid sequences for entries named in this document (tags omitted). Residues count along the entry.
UniProt P41279, 30-397: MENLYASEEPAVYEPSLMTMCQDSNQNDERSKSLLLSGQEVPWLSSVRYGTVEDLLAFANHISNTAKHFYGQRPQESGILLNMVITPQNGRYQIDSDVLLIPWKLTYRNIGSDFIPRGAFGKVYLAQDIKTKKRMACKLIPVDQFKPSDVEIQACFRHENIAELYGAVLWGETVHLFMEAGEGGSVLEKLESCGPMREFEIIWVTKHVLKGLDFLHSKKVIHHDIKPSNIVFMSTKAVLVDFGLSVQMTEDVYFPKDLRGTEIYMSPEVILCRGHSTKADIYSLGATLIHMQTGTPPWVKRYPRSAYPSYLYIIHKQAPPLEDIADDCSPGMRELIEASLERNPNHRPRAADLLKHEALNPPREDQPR

The compounds below were run on TNFα (assay: Cot Monocyte TNFα Cell Based Assay). Conditions: Homo sapiens, Monocyte, read-out: EC50 TNF, LPS-stimulated human monocytes, TNFα.

SMILES | EC50
CC(C)(C)CNc1c(C#N)cnc2c(Cl)cc(N[C@H](c3cn(C4(C)CC4)nn3)c3cccc4ncsc34)cc12 [Example 434, (S)-6-((benzo[d]thiazol-7-yl(1-(1-methylcyclopropyl)-1H-1,2,3-triazol-4-yl)methyl)amino)-8-chloro-4-(neopentylamino)quinoline-3-carbonitrile] | 61 nM
Cn1ccc2c([C@H](Nc3cc(Cl)c4ncc(C#N)c(NCC(C)(C)C(F)(F)F)c4c3)c3cn(C45CC(C4)C5)nn3)cccc2c1=O [Example 785, (S)-6-(((1-(bicyclo[1.1.1]pentan-1-yl)-1H-1,2,3-triazol-4-yl)(2-methyl-1-oxo-1,2-dihydroisoquinolin-5-yl)methyl)amino)-8-chloro-4-((3,3,3-trifluoro-2,2-dimethylpropyl)amino)quinoline-3-carbonitrile] | 23 nM
Cc1nc(F)ccc1[C@H](Nc1cc(Cl)c2ncc(C#N)c(NCC(C)(C)C)c2c1)c1cn(C2(C(N)=O)CCC2)nn1 [Example 478, (S)-1-(4-(((8-chloro-3-cyano-4-(neopentylamino)quinolin-6-yl)amino)(6-fluoro-2-methylpyridin-3-yl)methyl)-1H-1,2,3-triazol-1-yl)cyclobutane-1-carboxamide] | 77 nM
CCc1ncccc1[C@H](Nc1cc(Cl)c2ncc(C#N)c(NCC(C)(C)C)c2c1)c1cn(C2(C(F)F)CC2)nn1 [Example 604, (S)-8-chloro-6-(((1-(1-(difluoromethyl)cyclo-propyl)-1H-1,2,3-triazol-4-yl)(2-ethylpyridin-3-yl)methyl)amino)-4-(neopentylamino)-quinoline-3-carbonitrile] | 71 nM

More lines, now with the values ahead:

EC50 | SMILES
14 nM | Cc1nc(F)ccc1[C@H](Nc1cc(C#N)c2ncc(C#N)c(NCC(C)(C)C)c2c1)c1cn(C23CC(C2)C3)nn1 [Example 649, (S)-6-(((1-(bicyclo[1.1.1]pentan-1-yl)-1H-1,2,3-triazol-4-yl)(6-fluoro-2-methylpyridin-3-yl)methyl)amino)-4-(neopentylamino)quinoline-3,8-dicarbonitrile]
97 nM | Cn1cnc2cccc([C@H](Nc3cc(Cl)c4ncc(C#N)c(NCC(C)(C)C)c4c3)c3cn(C4(C(F)F)CC4)nn3)c21 [Example 499, (S)-8-chloro-6-(((1-(1-(difluoromethyl)-cyclopropyl)-1H-1,2,3-triazol-4-yl)(1-methyl-1H-benzo[d]imidazol-7-yl)methyl)amino)-4-(neopentylamino)-quinoline-3-carbonitrile]

Same assay, conditions: Homo sapiens, Monocyte, read-out: EC50 TNF, LPS-stimulated human monocytes, TNFα TR-FRET

SMILES | EC50
COc1c([C@@H](Nc2cc(C#N)c3ncc(C#N)c(NCC(C)(C)C)c3c2)c2ccc(F)nc2C)nnn1C1CC1 [Example 859, (S)-6-(((1-cyclopropyl-5-methoxy-1H-1,2,3-triazol-4-yl)(6-fluoro-2-methylpyridin-3-yl)methyl)amino)-4-(neopentylamino)quinoline-3,8-dicarbonitrile] | 53 nM
C[C@@H](CF)n1cc([C@@H](Nc2cc(Cl)c3ncc(C#N)c(NCC(C)(C)C)c3c2)c2cccc3ncccc23)nn1 [Example 803, 8-chloro-6-(((S)-(1-((S)-1-fluoropropan-2-yl)-1H-1,2,3-triazol-4-yl)(quinolin-5-yl)methyl)amino)-4-(neopentylamino)quinoline-3-carbonitrile] | 97 nM

Now from value to compound:

EC50 | SMILES
53 nM | CC(C)(C)CNc1c(C#N)cnc2c(C#N)cc(N[C@H](c3cn(C4(C(F)(F)F)CC4)nn3)c3csc4cnccc34)cc12 [Example 855, (S)-4-(neopentylamino)-6-((thieno[2,3-c]pyridin-3-yl(1-(1-(trifluoro-methyl)cyclopropyl)-1H-1,2,3-triazol-4-yl)methyl)-amino)quinoline-3,8-dicarbonitrile]
37 nM | Cc1nc(F)ccc1[C@H](Nc1cc(C#N)c2ncc(C#N)c(NCC(C)(C)C(F)(F)F)c2c1)c1nnn(C2CC2)c1F [Example 864, (S)-6-(((1-cyclopropyl-5-fluoro-1H-1,2,3-triazol-4-yl)(6-fluoro-2-methylpyridin-3-yl)methyl)amino)-4-((3,3,3-trifluoro-2,2-dimethylpropyl)amino)quinoline-3,8-dicarbonitrile]

These compounds were tested against Human Cot (Homo sapiens (Human), UniProt P41279) (assay: High Throughput Cot Biochemical Assay). Conditions: IC50 HTRF, Cot HTRF (TR-FRET) biochemical assay.

SMILES | IC50
N#Cc1cnc2c(Cl)cc(N[C@H](c3cn(C4CC4)nn3)c3cnccc3Cl)cc2c1Nc1cnc(F)c(F)c1 [Example 133, (S)-8-chloro-6-(((4-chloropyridin-3-yl)(1-cyclopropyl-1H-1,2,3-triazol-4-yl)methyl)amino)-4-((5,6-difluoropyridin-3-yl)amino)quinoline-3-carbonitrile] | 25 nM
Cn1ccc2c([C@H](Nc3cc(C#N)c4ncc(C#N)c(NCC(C)(C)C)c4c3)c3cn(C4(C(F)(F)F)CC4)nn3)ccnc21 [Example 664, (S)-6-(((1-methyl-1H-pyrrolo[2,3-b]pyridin-4-yl)(1-(1-(trifluoromethyl)cyclopropyl)-1H-1,2,3-triazol-4-yl)methyl)amino)-4-(neopentylamino)quinoline-3,8-dicarbonitrile] | 12 nM

Further lines, results first:

IC50 | SMILES
15 nM | Cc1ccc([C@H](Nc2cc(Cl)c3ncc(C#N)c(NCC(C)(C)C)c3c2)c2cn(C3(C(F)(F)F)CC3)nn2)c(C)n1 [Example 687, (S)-8-chloro-6-(((2,6-dimethylpyridin-3-yl)(1-(1-(trifluoromethyl)cyclopropyl)-1H-1,2,3-triazol-4-yl)methyl)amino)-4-(neopentylamino)quinoline-3-carbonitrile]
12 nM | Cn1ncc2c([C@H](Nc3cc(Cl)c4ncc(C#N)c(NCC(C)(C)C)c4c3)c3cn(Cc4c(F)cccc4F)nn3)cccc21 [Example 655, (S)-8-chloro-6-(((1-(2,6-difluorobenzyl)-1H-1,2,3-triazol-4-yl)(1-methyl-1H-indazol-4-yl)methyl)amino)-4-(neopentylamino)quinoline-3-carbonitrile]
12 nM | Cc1ncccc1[C@H](Nc1cc(Cl)c2ncc(C#N)c(Nc3cccc(Cl)c3)c2c1)c1c[nH]nn1 [Example 224, (S)-8-chloro-4-((3-chlorophenyl)amino)-6-(((2-methylpyridin-3-yl)(1H-1,2,3-triazol-4-yl)methyl)amino)-quinoline-3-carbonitrile]
12 nM | CC(C)(C)CNc1c(C#N)cnc2c(Cl)cc(N[C@H](c3cn(C4(C(F)(F)F)CC4)nn3)c3ccc(F)c4cnccc34)cc12 [Example 616, (S)-8-chloro-6-(((8-fluoroisoquinolin-5-yl)(1-(1-(trifluoromethyl)cyclopropyl)-1H-1,2,3-triazol-4-yl)methyl)amino)-4-(neopentylamino)quinoline-3-carbonitrile]
12 nM | Cc1ncccc1[C@H](Nc1cc(Cl)c2ncc(C#N)c(N[C@H](C)c3ccccc3)c2c1)c1c[nH]nn1 [Example 229, 8-chloro-6-(((S)-(2-methylpyridin-3-yl)(1H-1,2,3-triazol-4-yl)methyl)amino)-4-(((R)-1-phenylethyl)amino)quinoline-3-carbonitrile]
37 nM | Cc1nc(F)ccc1[C@H](Nc1cc(C#N)c2ncc(C#N)c(NC3CCCCC3)c2c1)c1cn(C2(C(F)(F)F)CC2)nn1 [Example 585, (S)-4-(cyclohexylamino)-6-(((6-fluoro-2-methylpyridin-3-yl)(1-(1-(trifluoromethyl)-cyclopropyl)-1H-1,2,3-triazol-4-yl)methyl)amino)quinoline-3,8-dicarbonitrile]
